Data from PubChem BioAssay (Tox21).
“And” between values parts separate entries of the source, which are not always exact repeats. Equal values may be shown once. This is a selection; strong and weak results do not stand in their true shares. Results filed as inconclusive are left out. The source made the active and inactive calls. The call rests on the fitted dose curve.

Assay: qHTS assay for small molecule disruptors of the mitochondrial membrane potential - cell viability (AID 720634);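 further: human HepG2 liver cancer cells; nearly all actives have a fitted effect of over 20% in size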
Settings: HepG2 viability, ATP luminescence (CellTiter-Glo), 1 h; at 39.1 µM (top of the series)
From the text: U.S. Tox21 Program National Center for Advancing Translational Sciences [NCATS] NIH Chemical Genomics Center [NCGC] U.S. Environmental Protection Agency [EPA] National Institutes of Environmental Health Sciences [NIEHS] National Toxicology Program [NTP] U.S. Food and Drug Administration [FDA] Tox21 Assay Overview: Mitochondrial membrane potential (MMP), one of the parameters for mitochondrial function, is generated by mitochondrial electron transport chain that creates an electrochemical gradient by a series of redox reactions. This gradient drives the synthesis of ATP, a crucial molecule for various cellular processes. Measuring MMP in living cells is commonly used to assess the effect of chemicals on mitochondrial function; decreases in MMP can be detected using lipophilic cationic fluorescent dyes. […] The dye accumulates in the mitochondria of healthy cells as aggregates, with red fluorescence. The mitochondrial potential decreases and the dye could not accumulate in the mitochondria and remains in the cytoplasm in monomers, with green fluorescence. In addition to the mitochondrial potential assay, these cells were also used to test the cytotoxicity by determining the cell viability in the culture based on the quantitation of ATP present. The cytotoxicity was measured in the same assay well of MMP assay.
Tox21 Assay Protocol Summary: 2,000 HepG2 cells in 5 uL/well were dispensed into black, clear-bottom 1536-well plates using a Multidrop Combi (Thermo Scientific) dispenser. The assay plates were incubated for an overnight at 37 C to allow cells to attach to the wells, followed by the transfer of 23 nL compound or DMSO vehicle by a pin tool (Kalypsys). The plates were incubated for 1 hr at 37 C and 5% CO2, followed by the addition of 5 uL of 2X m-MPI dye into each well using Flying Reagent Dispenser (Aurora Discovery) and then CellTiter-Glo reagent was added at 4 uL/well and incubated 30 min at room temperature. Then luminescence intensity was quantified on a ViewLux CCD-based plate reader.
On the % scale 0 is the no-effect control and ±100 the full control effect.

SMILES	activity change, negative = cytotoxicity
C/C1=C2N=C(/C=C3N=C(/C(C)=C4\[N-][C@@](C)([C@@H]5N=C1[C@](C)(CCC(=O)NC[C@@H](C)OP(=O)([O-])O[C@H]1[C@@H](O)[C@@H](n6cnc7cc(C)c(C)cc76)O[C@@H]1CO)[C@H]5CC(N)=O)[C@@](C)(CC(N)=O)[C@@H]4CCC(N)=O)[C@@](C)(CC(N)=O)[C@@H]\3CCC(N)=O)C(C)(C)[C@@H]/2CCC(N)=O.[C-]#N.[Co+3]	inactive: -4.95%

Same assay, conditions: HepG2 viability, ATP luminescence (CellTiter-Glo), 1 h; at 83.2 µM (top of the series)

SMILES	activity change, negative = cytotoxicity
Cc1ccc([N+](=O)[O-])c([N+](=O)[O-])c1	inactive: -6.61%
CC(C)N(CCO)C(C)C	inactive: 8.73%
Cc1ccc([N+](=O)[O-])cc1[N+](=O)[O-]	inactive: -1.5% and inactive: 13.2%
Cc1cccc([N+](=O)[O-])c1[N+](=O)[O-]	inactive: -19.8%
O=[N+]([O-])OCC(CO[N+](=O)[O-])(CO[N+](=O)[O-])CO[N+](=O)[O-]	inactive: 11.5% and inactive: -3.68%
CC(C)OP(=O)(F)OC(C)C	inactive: 6.37%
CC(C)N(CCCl)C(C)C	inactive: -6.99%
[NH4+].[O-][Cl+3]([O-])([O-])[O-]	inactive: -1.25%
CC(C)OP(C)(=O)OC(C)C	inactive: 4.61% and inactive: 10.8%
OCCSCCO	inactive: -2.66%
Cc1c([N+](=O)[O-])cccc1[N+](=O)[O-]	inactive: 4.27% and inactive: -5.83%
COP(C)(=O)OC	inactive: -0.207%
CP(=O)(O)OCCC[Si](O)(O)O	inactive: 7.12%
CCOP(=O)(CC)Oc1ccc([N+](=O)[O-])cc1 (stereo not given)	inactive: 7.83%
O=[N+]([O-])c1cccc([N+](=O)[O-])c1	inactive: 12.9%
CCOP(=O)(CC)OCC	inactive: 2.06%
CN(C)CCS	inactive: -7.7%
COc1ccc([N+](=O)[O-])cc1[N+](=O)[O-]	inactive: -7.09%

Same assay, conditions: HepG2 viability, ATP luminescence (CellTiter-Glo), 1 h; at 95.3 µM (top of the series)

SMILES	activity change, negative = cytotoxicity
[NH4+].[O-][Cl+3]([O-])([O-])[O-]	inactive: 16.2%
OCCSCCO	inactive: 3.55%
COP(C)(=O)OC	inactive: 4.57%
O=[N+]([O-])c1cccc([N+](=O)[O-])c1	inactive: -20.3%
CCN(CC)CCCl	inactive: 7.09%
N=C(N)N[N+](=O)[O-]	inactive: 6.08%
